These are literature values, as cited in US9546151B2, “VMAT inhibitory compounds” (Oregon Health & Science University, priority 2014, dated 2017).

The chains behind the UniProt entries cited, without tags or fusion partners.
UniProt Q05940, whole entry, species assumed: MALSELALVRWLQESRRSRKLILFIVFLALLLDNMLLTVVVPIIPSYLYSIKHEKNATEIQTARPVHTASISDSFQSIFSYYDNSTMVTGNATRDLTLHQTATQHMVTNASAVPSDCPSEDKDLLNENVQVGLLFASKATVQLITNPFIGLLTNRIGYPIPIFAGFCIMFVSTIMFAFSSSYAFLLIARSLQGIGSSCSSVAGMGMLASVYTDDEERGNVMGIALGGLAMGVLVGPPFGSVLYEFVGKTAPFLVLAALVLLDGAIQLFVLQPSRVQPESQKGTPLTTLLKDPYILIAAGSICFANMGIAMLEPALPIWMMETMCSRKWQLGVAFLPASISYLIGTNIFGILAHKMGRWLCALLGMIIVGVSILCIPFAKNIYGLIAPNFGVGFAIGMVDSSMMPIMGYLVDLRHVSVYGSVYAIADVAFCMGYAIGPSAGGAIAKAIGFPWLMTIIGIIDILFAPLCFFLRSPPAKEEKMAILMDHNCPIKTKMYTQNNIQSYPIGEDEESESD

The target in the data set is VMAT2 (Homo sapiens, UniProt Q05940). The note with it: background statements; cited from earlier work.

In the case of `COc1cc2c(cc1OC)[C@H]1C[C@@H](O)[C@H](CC(C)C)CN1CC2` [DTBZ, Dihydrotetrabenazine], the “affinity for VMAT2 (in words)” value is on record as “high affinity”.
In the case of `COC(=O)[C@H]1[C@H]2C[C@@H]3c4[nH]c5cc(OC)ccc5c4CCN3C[C@H]2C[C@@H](OC(=O)c2cc(OC)c(OC)c(OC)c2)[C@@H]1OC` [reserpine, Methyl (3β,16β,17α,18β,20α)-11, 17-dimethoxy-18-[(3,4,5-trimethoxybenzoyl)oxy]yohimban-16-carboxylate], the “affinity for VMAT2 (in words)” value was “high-affinity”.
